Measured values from patent EP0695746A2, “Antiviral compounds and pharmaceutical compositions” (PHARMA MAR, S.A., priority 1994, dated 1996).

Tested on: HIV-1 RF
Experiment: Syncytium-forming assay (Syncytia assay), antiviral activity
Type: cell-based
From the text: To determine the HIV-1 viral titers the quantitative infectivity syncytium-forming assay described by P.L. Nara and P.J. Fischinger, "Quantitative Infectivity Assay for HIV-1 and -2," Nature, 332: 469 (1988)) was used. In this assay a single infectious unit of virus infects a single cell and initiates a focal cell change such as syncytium formation. Because a single infectious unit causes a single response, a linear relationship exists between the number of cytopathic effects caused by viral infection and the first order of virus concentration. This quantitative assay can be used to determine the titers of the HIV-1 in viral stocks, neutralization tests, and antiviral assays.
The quantitative infectivity syncytium-forming assay is applied for the direct quantitation of fusigenic virus-infected cells. CEM-SS cells were used for the syncytium-forming assay. CEM-SS cell are human T4-lymphoblastoid cells of a cell line initially derived by G.E. Foley, et al., "Continuous Culture to Human Lymphoblasts from Peripheral Blood of a Child with Acute Leukemia," Cancer, 18: 522 (1965) and biologically cloned by Nara et al., supra. The cells for this assay were provided by Dr. Nara.
CEM-SS cells were maintained in a growth medium of RPMI 1640, 10% fetal bovine serum, 1% L-glutamine (200 mM) and 50 µg/ml of gentamicin. CEM-SS cells grow in suspension. The cells have been cloned for both poly-L-lysine-induced adherence to microtiter plates and virus-induced syncytial and fusogenic sensitivity following infection with either cell-free or cell-associated HIV-1 and HIV-2. It has been determined that the cells are negative for virus including human retroviruses as determined by electron microscopy and reverse transcriptase analysis.
A.4.1. Use 96-wells flat bottom tissue culture plates and score the bottoms of all wells into 4 quadrants. A.4.2. Add 50 µl/well of diluted poly-L-lysine. Prepare stock poly-L-lysine (Poly-L-lysine hydrobromide, Sigma catalog, cat. # P-1399) at 5 mg/ml and store at -20°C for future use. For the assay dilute the stock poly-L-lysine 1:100 using phosphate buffered saline (PBS). A.4.3. Incubate plates at room temperature for no less than 30 minutes. A.4.4. Remove poly-L-lysine from wells. A.4.5. Wash the plates with 100 µl/well of Dulbecco's PBS and remove the excess PBS. A.4.6. Dilute CEM-SS cells in a logarithmic state of growth to 0.5 x 10⁶ cells per ml in a serum free medium and add 1 µg/ml polybrene. Incubate the cell suspension at 37°C for 60 minutes. Centrifuge at 800 rpm for 10 minutes and decant the supernatant fluid. A.4.7. Dilute the treated CEM-SS cell suspension to 5.0 x 10⁵ cells. Add 100 µl to the test wells so that the final cell concentration is 50,000 cells per well. Make ten-fold dilutions of the viral stock. Add 50 µl to the test wells. […]

CC1(C)CCC[C@@]2(C)[C@H](c3ccoc3)C(=O)[C@H]3O[C@@]312 (racemic) [PM-92131 (±)]
SI (Table II, Syncytia Assay, listed as PM-92131 (±) (253-48)): 18
SI (Table II, Syncytia Assay, listed as PM-92131 (±) (289-8)): >42
SI (Table III, Syncytia Assay (M.O.I. = .005), listed as PM-92131 (±) (253-48)): 21
SI (Table III, Syncytia Assay (M.O.I. = .005), listed as PM-92131 (±) (289-8)): >42
